From ChEMBL document CHEMBL3875185, “Structure-anticonvulsant activity studies in the group of (E)-N-cinnamoyl aminoalkanols derivatives monosubstituted in phenyl ring with 4-Cl, 4-CH3 or 2-CH3” (Bioorg Med Chem, 2017)

Tests used:
Format in all cases: toxicity, organism-based
Details in all cases: in vivo, read-out: Ratio TD50/ED50
[1] = Protection index, ratio of TD50 for neurotoxicity in ip dosed mouse to ED50 for ip dosed 6-Hz induced seizure mouse model at 32 mA
[2] = Protection index, ratio of TD50 for neurotoxicity in po dosed Sprague-Dawley rat model to ED50 for po dosed pentylenetetrazole induced seizure Sprague-Dawley rat model
[3] = Protection index, ratio of TD50 for neurotoxicity in ip dosed mouse to ED50 for ip dosed pentylenetetrazole induced seizure mouse model
[4] = Protection index, ratio of TD50 for neurotoxicity in po dosed Sprague-Dawley rat model to ED50 for po dosed maximal electroshock induced seizure Sprague-Dawley rat model
[5] = Protection index, ratio of TD50 for neurotoxicity in ip dosed mouse to ED50 for ip dosed maximal electroshock induced seizure mouse model

Molecule `NC(=O)N1c2ccccc2C=Cc2ccccc21` [CARBAMAZEPINE] has a selectivity ratio [1] of 0.95, a selectivity ratio [2] of less than 1.46 and a selectivity ratio [3] of less than 0.91. For the same molecule, the selectivity ratio [4] was 68 and the selectivity ratio [5] was 5.81.
